This note sets out measurements from PubChem BioAssay AID624172 (National Center for Advancing Translational Sciences (NCATS), 2012).

By UniProt entry, the sequences of proteins in these tests, tags left out. Where a name states a change or a piece, a line headed by the entry shows the natural chain unless it says otherwise.
UniProt P43220, whole entry, stated change not applied: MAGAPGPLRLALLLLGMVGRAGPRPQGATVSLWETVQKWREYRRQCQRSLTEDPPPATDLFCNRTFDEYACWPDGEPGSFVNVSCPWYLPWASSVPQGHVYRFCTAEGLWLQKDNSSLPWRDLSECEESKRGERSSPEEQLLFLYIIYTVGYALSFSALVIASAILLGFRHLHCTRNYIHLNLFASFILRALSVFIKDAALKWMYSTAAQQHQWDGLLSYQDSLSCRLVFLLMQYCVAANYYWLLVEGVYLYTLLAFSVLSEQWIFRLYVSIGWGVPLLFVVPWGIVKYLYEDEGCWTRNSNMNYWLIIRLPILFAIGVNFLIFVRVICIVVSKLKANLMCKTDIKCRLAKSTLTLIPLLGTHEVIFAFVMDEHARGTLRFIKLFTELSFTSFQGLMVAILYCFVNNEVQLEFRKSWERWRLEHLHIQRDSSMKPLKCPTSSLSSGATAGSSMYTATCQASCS

Only a part is listed here, and it is no random draw. Active and inactive are the calls of the source. The call rests on the fitted dose curve; in most records, active means well fitted activation curve with a large enough effect; inconclusive means small, poorly fitted or top-dose-only effect; inactive means no such curve, though single readings can be large or run the other way.

The assay addresses Glucagon-like peptide 1 receptor (Homo sapiens) (UniProt P43220). The experiment in a line: qHTS of GLP-1 Receptor Agonists. Further: % of control where 0% means no effect. The note with it: HEK293 GLP-1R CRE-luciferase, luminescence, 4-6 h, cells express a hypersensitive GLP-1R form. The source says:
The overall goal of this project was to develop a novel assay for discovering small molecule ligands for class B1 G protein-coupled receptors (GPCRs). Very few agonists (or inverse agonists) with generally weak activity for this entire group of physiologically important receptors are known to date. To establish proof-of-principle that this critical bottleneck can be overcome with a suitable screening approach, our studies focused on the class B1 receptor for glucagon-like peptide-1 (GLP-1R), a potential therapeutic target for diabetes and neurodegenerative disease.
The assay was developed in a "mix and measure" format using a cell-based functional readout. Toward this goal, stably transfected HEK293 cell clones were established that co-express (i) a cAMP-responsive luciferase reporter gene, and (ii) GLP-1Rs that upon ligand interaction either stimulate (agonists) or inhibit (inverse agonists) luciferase activity. In different cell lines to be used for screening, expressed GLP-1Rs are specifically optimized for high sensitivity detection of either weak agonists (hypersensitive receptor) or inverse agonists (constitutively active receptor mutant). In addition, control cell lines were developed that express either the cAMP-responsive reporter gene without recombinant GLP-1Rs (enabling initial exclusion of GLP-1R independent effects of candidate probes), or the reporter gene together with wild type GLP-1Rs (for confirmation of probe activity at this receptor), or the reporter gene in combination with the constitutively active orphan receptor GPR119 (enabling initial exclusion of GLP-1R independent inhibitory effects of candidate inverse agonists).
To that end, this assay was optimized for 1536-well format and screened against the MLSMR.
NIH Molecular Libraries Probe Production Network [MLPCN]
NIH Chemical Genomics Center [NCGC]
PI Name: Martin Beinborn, Tufts Medical Center
In a white solid 1536-well plate, 6 uL of cells are dispensed in DMEM without phenol red, 10% Nu serum, and 1% pen-strep medium. The plates are then incubated for 12 hours at 37 deg C at 5% CO2 before 23 nL of compounds are added. After a 4-6 hr incubation at37 deg C and 5% CO2, 3 uL of detection reagent are added and after a 12 min incubation at RT, a luminescent read is obtained on the ViewLux.
For orientation: In qHTS, concentration-response curves come from the screen itself.

[1] abbreviates: at 45.6 µM (top of the series) unless noted.

For the compound `CP(=O)(Nc1ccc(Cl)cc1Cl)Oc1ccccc1` (stereo unspecified), the activation under setting [1] is inactive: -2.99%.

On to `CCCCCCCCCCCCCCCC1C[N+](C)(C)CCOP(C)(=O)O1` (stereo unspecified), for which, under setting [1], the activation was inactive: 5.6%.

Regarding `CP(=O)(OCCOc1ccccc1)OCCOc1ccccc1`, under setting [1], the activation is inactive: -4.38%.

On to `O=[N+]([O-])c1cc([N+](=O)[O-])c(Nc2cccnc2)c([N+](=O)[O-])c1`, for which the activation under setting [1] is inactive: -1.62%.

For `O=[N+]([O-])c1ccc2c(c1)C=Nc1ccccc1O2`, the activation under setting [1] was inactive: 8.84%.

As for `Cc1cccc(C)c1OP(C)(N)=O` (stereo unspecified), the activation under setting [1] is inactive: -1.84%.

`CC(C)(C)c1ccc(OP(C)(=O)Nc2ccc(SC(F)(F)F)cc2)cc1` (stereo unspecified): the activation under setting [1] is inactive: -35.7%.

On to `Cc1ccc(NP(C)(=O)Oc2ccccc2)c(C)c1` (stereo unspecified), for which the activation under setting [1] was inactive: 14.5%.

Consider `COc1ccccc1OP(C)(=O)Nc1ccc(C)cc1` (stereo unspecified), for which the activation under setting [1] was inactive: -4.33%.

For `CCOC(=O)c1ccc(NP(C)(=O)Oc2ccccc2)cc1` (stereo unspecified), under setting [1], the activation is inactive: 4.57%.

In the case of `Cc1cc(C)cc(OP(C)(N)=O)c1` (stereo unspecified), the activation under setting [1] is inactive: -3.66%.

As for `COc1ccc(OP(C)(=O)Nc2cccc(F)c2)cc1` (stereo unspecified), the activation under setting [1] was inactive: 1.81%.

Regarding `COc1ccccc1OP(C)(=O)Nc1cc(Cl)ccc1C` (stereo unspecified), the activation under setting [1] is inactive: 8.65%.

For the compound `CCN(CC)CCCOC(=O)C(O)(c1ccccc1)c1ccccc1`, the activation under setting [1] was inactive: -2.91%.

In the case of `COc1ccccc1-c1ccccn1.O=[N+]([O-])c1cc([N+](=O)[O-])c(O)c([N+](=O)[O-])c1`, under setting [1], the activation was inactive: -2.41%.

With `O=[N+]([O-])[O-].[NH4+]`, the activation under setting [1] was inactive: -2.44%.

In the case of `CP(=O)(Oc1ccccc1)OC(c1ccccc1)C(F)(F)F` (stereo unspecified), the activation under setting [1] is inactive: -3.08%.

In the case of `Cc1cccc(C)c1OP(C)(=O)Nc1ccc(SC(F)(F)F)cc1` (stereo unspecified), the activation under setting [1] is inactive: 7.08%.

Turning to `CP(=O)(Nc1ccc(SC(F)(F)F)cc1)Oc1ccc(Cl)cc1` (stereo unspecified), the activation under setting [1] is inactive: -5.82%.

Take `Cc1cc(C)cc(OP(C)(=O)Nc2ccc(SC(F)(F)F)cc2)c1` (stereo unspecified): under setting [1], the activation was inactive: 10.6%.

In the case of `CP(=O)(NC(=O)Nc1ccccc1)Oc1ccccc1` (stereo unspecified), under setting [1], the activation is inactive: 0.949%.

As to `CCc1ccc(OP(C)(=O)N2CCN(c3ccc([N+](=O)[O-])cc3)CC2)cc1` (stereo unspecified), the activation under setting [1] is inactive: 10.5%.

Take `CN(C)CCS`: under setting [1], the activation was inactive: -0.0367%.

Regarding `CCOC(=O)c1ccc(NP(C)(=O)Oc2ccc(OC)cc2)cc1` (stereo unspecified), under setting [1], the activation was inactive: 18.6%.

For the compound `O=[N+]([O-])c1cc([N+](=O)[O-])c(O)c([N+](=O)[O-])c1.c1ccc(Oc2ccncc2)cc1`, the activation under setting [1] was inactive: -0.538%.

Regarding `CCOP(C)(=S)SCC(=O)NC(C)C(=O)O` (stereo unspecified), the activation under setting [1] was inactive: -12%.

As to `CP(=O)(Nc1ccccn1)Oc1ccc(Cl)cc1` (stereo unspecified), the activation under setting [1] was inactive: -1.93%.

`CP(=S)(Nn1cnnc1)Oc1ccccc1` (stereo unspecified): the activation under setting [1] was inactive: 0.363%.

Regarding `CP(=O)(Nc1ccccc1Br)Oc1ccccc1` (stereo unspecified), under setting [1], the activation is inactive: 1.28%.

In the case of `COc1ccccc1OP(C)(=O)Nc1ccccc1` (stereo unspecified), the activation under setting [1] is inactive: 4.29%.

With `CC1=C2N=C(C=C3N=C(C(C)=C4[N-][C@@](C)([C@@H]5N=C1[C@](C)(CCC(=O)NC[C@@H](C)OP(=O)([O-])O[C@H]1[C@@H](O)[C@@H](n6cnc7cc(C)c(C)cc76)O[C@@H]1CO)[C@H]5CC(N)=O)[C@@](C)(CC(N)=O)[C@@H]4CCC(N)=O)[C@@](C)(CC(N)=O)[C@@H]3CCC(N)=O)C(C)(C)[C@@H]2CCC(N)=O.[C-]#N.[Co+3]`, the activation under setting [1] is inactive: -2.73%.

As for `O=[N+]([O-])c1cc([N+](=O)[O-])c(Nc2nnnn2CCO)c([N+](=O)[O-])c1`, under setting [1], the activation is inactive: -11.7%.

As for `COc1ccccc1OP(C)(=O)Nc1c(C)cccc1C` (stereo unspecified), the activation under setting [1] was inactive: -9.5%.

Turning to `CN1CCCCC1COC(=O)C1(O)c2ccccc2CCc2ccccc21` (stereo unspecified), the activation under setting [1] was inactive: -1.48%.

`CCCOc1ccc(NP(C)(=O)Oc2ccc(Cl)cc2)cc1` (stereo unspecified): under setting [1], the activation is inactive: 14.3%.

Regarding `CP(=O)(Nc1ccc(SC(F)(F)F)cc1)Oc1ccccc1` (stereo unspecified), under setting [1], the activation was inactive: 3.32%.

With `O=[N+]([O-])c1cc([N+](=O)[O-])c(-n2nnc3ccccc32)c([N+](=O)[O-])c1`, the activation under setting [1] was inactive: 2.36%.

On to `CC(C)N(CCCl)C(C)C`, for which the activation under setting [1] is inactive: 1.42%.

Consider `CN(Cc1cccnc1)C(=O)COc1ccc(Cl)c(Cl)c1.O=[N+]([O-])c1cc([N+](=O)[O-])c(O)c([N+](=O)[O-])c1`, for which, under setting [1], the activation is inactive: 7.11%.

Turning to `O=[N+]([O-])c1cc([N+](=O)[O-])c(-c2cnn(-c3ccccc3)c2)c([N+](=O)[O-])c1`, the activation under setting [1] was inactive: 11.7%.

For the compound `Cc1nc2ccc3ccccc3c2s1.O=[N+]([O-])c1cc([N+](=O)[O-])c(O)c([N+](=O)[O-])c1`, under setting [1], the activation is inactive: 2.73%.

Turning to `COc1ccccc1OP(C)(=O)Nc1cccc(Br)c1` (stereo unspecified), the activation under setting [1] was inactive: -2.8%.

`CCOC(=O)c1ccc(NP(C)(=O)Oc2cc(C)cc(C)c2)cc1` (stereo unspecified): the activation under setting [1] was inactive: 18.3%.

Turning to `Cc1cc(C)cc(OP(C)(=O)Nc2ccc(C)cc2C)c1` (stereo unspecified), the activation under setting [1] is inactive: 13%.

Turning to `Cc1ccc(C)c(NP(C)(=O)Oc2ccccc2)c1` (stereo unspecified), the activation under setting [1] is inactive: 1.87%.

On to `Cc1cc(C)cc(OP(C)(=O)Nc2ccccn2)c1` (stereo unspecified), for which the activation under setting [1] was inactive: -3.82%.

`CP(=O)(Nc1cccc(Br)c1)Oc1ccccc1` (stereo unspecified): the activation under setting [1] was inactive: 14%.

Consider `O=[N+]([O-])c1cccc([N+](=O)[O-])c1`, for which the activation is inactive: 13.8% (at 45.6 µM (top of the series)) and inactive: -7.87% (at 96 µM (top of the series)).

As for `CC1=NCCc2c1[nH]c1ccccc21.O=[N+]([O-])c1cc([N+](=O)[O-])c(O)c([N+](=O)[O-])c1`, under setting [1], the activation is inactive: -20.2%.

As to `O=[N+]([O-])OCC(CO[N+](=O)[O-])(CO[N+](=O)[O-])CO[N+](=O)[O-]`, the activation under setting [1] is inactive: -2.49%.
